# Experimental data as given in ChEMBL document CHEMBL1130370, “Novel hydroxyphosphonate inhibitors of CD-45 tyrosine phosphatase” (Bioorg Med Chem Lett, 1997).
# Target: T1, Receptor-type tyrosine-protein phosphatase C (Homo sapiens) (UniProt P08575)
# T1 sequence (whole entry): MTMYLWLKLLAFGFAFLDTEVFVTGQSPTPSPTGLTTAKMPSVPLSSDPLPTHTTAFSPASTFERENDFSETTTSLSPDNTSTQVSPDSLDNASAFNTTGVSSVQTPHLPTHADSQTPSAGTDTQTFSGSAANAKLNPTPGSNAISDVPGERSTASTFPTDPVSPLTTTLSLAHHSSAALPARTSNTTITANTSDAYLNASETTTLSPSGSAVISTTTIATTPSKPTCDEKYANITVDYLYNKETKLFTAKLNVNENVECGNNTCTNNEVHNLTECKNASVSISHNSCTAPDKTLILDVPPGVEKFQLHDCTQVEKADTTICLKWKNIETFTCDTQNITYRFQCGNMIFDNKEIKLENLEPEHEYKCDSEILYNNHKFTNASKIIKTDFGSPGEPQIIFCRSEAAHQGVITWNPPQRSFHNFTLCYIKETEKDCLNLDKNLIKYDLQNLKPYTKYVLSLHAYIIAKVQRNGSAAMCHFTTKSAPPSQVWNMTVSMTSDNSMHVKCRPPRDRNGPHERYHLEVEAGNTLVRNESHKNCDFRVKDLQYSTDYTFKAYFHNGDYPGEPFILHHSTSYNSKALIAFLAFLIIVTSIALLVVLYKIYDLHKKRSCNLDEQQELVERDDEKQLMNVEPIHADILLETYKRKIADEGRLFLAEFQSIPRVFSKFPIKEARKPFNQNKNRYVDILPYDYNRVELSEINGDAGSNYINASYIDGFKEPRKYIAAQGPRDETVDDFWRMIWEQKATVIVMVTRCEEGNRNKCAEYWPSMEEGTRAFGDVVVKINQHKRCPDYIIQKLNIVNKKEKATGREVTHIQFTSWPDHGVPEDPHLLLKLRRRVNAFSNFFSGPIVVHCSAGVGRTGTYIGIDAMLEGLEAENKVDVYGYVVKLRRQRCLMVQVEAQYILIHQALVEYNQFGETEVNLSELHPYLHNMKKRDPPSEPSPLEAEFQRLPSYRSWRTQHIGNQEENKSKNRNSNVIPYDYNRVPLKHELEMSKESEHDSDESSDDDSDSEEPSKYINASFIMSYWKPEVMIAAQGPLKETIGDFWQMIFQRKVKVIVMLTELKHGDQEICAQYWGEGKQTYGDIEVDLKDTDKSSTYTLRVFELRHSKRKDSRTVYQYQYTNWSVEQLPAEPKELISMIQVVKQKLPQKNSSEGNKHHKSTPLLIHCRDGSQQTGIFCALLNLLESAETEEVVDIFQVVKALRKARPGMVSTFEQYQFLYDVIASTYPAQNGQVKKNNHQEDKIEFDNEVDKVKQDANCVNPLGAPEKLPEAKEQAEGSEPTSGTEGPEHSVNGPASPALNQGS
# Assay: Compound was tested for its inhibitory activity against CD-45 tyrosine phosphatase of Jurkat cell membrane at 500 uM concentration
smiles,measurement,value
[N-]=[N+]=Nc1ccc([N+](=O)[O-])cc1C(O)P(=O)(O)O (stereo unspecified),inhibition,97%
